{
  "sequences": {"note": "Chains of the proteins cited; added tags and fusions are not shown. Residues count along the entry.", "UniProt P35563, 24-483": "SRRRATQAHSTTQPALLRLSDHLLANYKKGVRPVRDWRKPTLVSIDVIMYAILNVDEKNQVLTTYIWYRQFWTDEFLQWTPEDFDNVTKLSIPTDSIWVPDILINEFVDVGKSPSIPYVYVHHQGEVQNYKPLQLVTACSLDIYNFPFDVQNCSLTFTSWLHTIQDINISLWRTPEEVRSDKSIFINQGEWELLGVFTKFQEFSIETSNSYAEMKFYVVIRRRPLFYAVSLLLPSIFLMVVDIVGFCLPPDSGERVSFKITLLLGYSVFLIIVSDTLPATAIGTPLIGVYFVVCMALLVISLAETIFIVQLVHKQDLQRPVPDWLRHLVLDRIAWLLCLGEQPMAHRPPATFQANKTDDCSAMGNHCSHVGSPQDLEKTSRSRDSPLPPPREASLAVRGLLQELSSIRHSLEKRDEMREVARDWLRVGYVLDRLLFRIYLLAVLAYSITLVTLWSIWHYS", "UniProt P35563, 24-483 I207V": "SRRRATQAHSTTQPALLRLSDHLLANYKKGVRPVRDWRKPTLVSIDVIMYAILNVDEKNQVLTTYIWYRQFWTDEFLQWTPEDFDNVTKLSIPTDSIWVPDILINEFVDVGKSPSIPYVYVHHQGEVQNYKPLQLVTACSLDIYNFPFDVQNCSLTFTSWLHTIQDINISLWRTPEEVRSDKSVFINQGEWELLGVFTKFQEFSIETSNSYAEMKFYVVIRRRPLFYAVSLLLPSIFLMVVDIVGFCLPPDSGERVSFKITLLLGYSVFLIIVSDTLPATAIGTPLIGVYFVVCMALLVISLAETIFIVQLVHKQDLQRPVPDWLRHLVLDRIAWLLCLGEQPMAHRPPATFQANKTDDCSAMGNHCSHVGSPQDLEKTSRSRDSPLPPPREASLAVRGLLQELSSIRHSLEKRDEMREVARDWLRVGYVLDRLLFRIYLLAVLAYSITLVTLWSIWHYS", "UniProt O70212, 20-490": "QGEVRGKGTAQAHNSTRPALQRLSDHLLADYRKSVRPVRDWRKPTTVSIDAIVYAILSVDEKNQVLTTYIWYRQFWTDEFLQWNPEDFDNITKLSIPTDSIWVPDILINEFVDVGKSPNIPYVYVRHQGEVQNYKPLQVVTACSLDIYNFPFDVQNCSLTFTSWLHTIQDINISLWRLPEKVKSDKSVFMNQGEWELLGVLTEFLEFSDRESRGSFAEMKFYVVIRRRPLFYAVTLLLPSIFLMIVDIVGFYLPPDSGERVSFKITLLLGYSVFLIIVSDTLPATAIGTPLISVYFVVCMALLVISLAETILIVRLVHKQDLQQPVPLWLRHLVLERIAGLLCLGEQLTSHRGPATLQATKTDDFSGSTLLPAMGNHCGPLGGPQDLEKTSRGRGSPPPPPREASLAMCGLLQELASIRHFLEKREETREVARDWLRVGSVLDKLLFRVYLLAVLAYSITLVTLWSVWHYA"},
  "source": "paper doi:10.1101/2024.02.23.581731v1",
  "about": "(biorxiv, 2024)",
  "assay_in_all_cases": "FLIPR Blue membrane potential assay, activation",
  "format_in_all_cases": "cell-based",
  "key": {"[1]": {"biological_target": "r5-HT3AR (Rattus norvegicus, UniProt P35563)"}, "[2]": {"biological_target": "gp5-HT3AR (Cavia porcellus, UniProt O70212)"}, "[3]": {"biological_target": "r5-HT3AR (Rattus norvegicus, UniProt P35563, I207V)"}},
  "data": [
    {"compound": "NCCc1c[nH]c2ccc(O)cc12", "note": "[serotonin]", "values": [
      {"measurement": "EC50", "setting": "[1]", "result": 1660, "unit": "nM"},
      {"measurement": "EC50", "setting": "[2]", "result": 255, "unit": "nM"},
      {"measurement": "EC50", "setting": "[3]", "result": 778, "unit": "nM"}
    ]}
  ]
}
